Data published in publication PMC6220267.

Chains of the proteins cited; added tags and fusions are not shown. Residues count along the entry.
UniProt Q9NZC2, 19-174: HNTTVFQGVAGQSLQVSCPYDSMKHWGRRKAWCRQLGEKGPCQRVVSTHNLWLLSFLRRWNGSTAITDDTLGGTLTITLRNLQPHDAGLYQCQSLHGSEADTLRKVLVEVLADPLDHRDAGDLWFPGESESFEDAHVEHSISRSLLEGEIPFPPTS

Key:
[1] = target: T1, soluble mouse Trem1‐Fc (soluble ectodomain) (mouse) (UniProt Q9JKE2); assay: BLI; conditions: chains peptide; remark: other sources report otherwise
T1 sequence: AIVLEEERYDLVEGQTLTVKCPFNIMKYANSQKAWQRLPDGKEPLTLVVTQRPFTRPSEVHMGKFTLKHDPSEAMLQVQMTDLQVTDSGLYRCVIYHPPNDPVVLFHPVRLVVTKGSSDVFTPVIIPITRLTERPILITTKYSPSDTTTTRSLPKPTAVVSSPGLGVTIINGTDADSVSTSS

[2] = target: soluble TREM2‐Fc (soluble ectodomain of human TREM2 fused to the Fc domain of human IgG4, V5 epitope) (human) (UniProt Q9NZC2); assay: BLI; optimized assay: Protein A sensors loaded to near-saturation with soluble TREM‐Fc‐V5 proteins in PBS; ligand in serial dilution (five concentrations); dissociation in PBS; 1:1 interaction model

Row | Substance | Kd [1] [pM] | koff [1] [s⁻¹] | Kd [2] [pM] | koff [2] [s⁻¹]
1 | Aβ42 oligomers (soluble) (from UniProt P05067 672-713) | 1 | 1e-07 |  | 
2 | Aβ42 oligomers (soluble) (from UniProt P05067 672-713) (peptide) |  |  | < 1 | 1e-07
